From patent US20120088753A1, “PYRROLOPYRIMIDINES AND USED AS KINASE INHIBITORS” (MEDICAL RESEARCH COUNCIL TECHNOLOGY, priority 2009, published 2012)

Sequences of proteins named here, by UniProt entry; tags and fusion partners are left off.
UniProt Q9UHD2, whole entry: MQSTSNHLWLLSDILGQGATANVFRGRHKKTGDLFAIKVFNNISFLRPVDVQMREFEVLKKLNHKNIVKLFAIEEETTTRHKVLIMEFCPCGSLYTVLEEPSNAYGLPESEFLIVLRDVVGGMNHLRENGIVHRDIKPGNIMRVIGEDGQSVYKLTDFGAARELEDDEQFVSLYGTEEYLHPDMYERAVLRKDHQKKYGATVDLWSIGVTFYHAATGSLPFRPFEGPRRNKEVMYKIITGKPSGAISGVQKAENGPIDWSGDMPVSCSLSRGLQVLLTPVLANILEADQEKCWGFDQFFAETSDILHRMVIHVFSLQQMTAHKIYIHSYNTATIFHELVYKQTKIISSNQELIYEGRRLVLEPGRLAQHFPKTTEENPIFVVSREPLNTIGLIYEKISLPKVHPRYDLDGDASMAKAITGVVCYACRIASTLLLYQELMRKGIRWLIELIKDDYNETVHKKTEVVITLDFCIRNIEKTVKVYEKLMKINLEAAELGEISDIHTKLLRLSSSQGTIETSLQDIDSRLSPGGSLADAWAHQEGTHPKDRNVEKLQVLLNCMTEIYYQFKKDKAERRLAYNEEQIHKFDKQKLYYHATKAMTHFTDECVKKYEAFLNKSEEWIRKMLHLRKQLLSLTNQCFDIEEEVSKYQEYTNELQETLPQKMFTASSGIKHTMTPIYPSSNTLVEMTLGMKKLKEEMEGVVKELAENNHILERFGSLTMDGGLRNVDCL

Target: TBK1 (Homo sapiens, UniProt Q9UHD2)
Test: TBK1 protein kinase assay ([γ-33P]ATP filter-plate, IC50 from 10 concentrations)
Type: biochemical
Details: read-out: Potency score (TBK1 IC50); 50 μM ATP, peptide substrate 300 μM, 30 min, 21° C.
Excerpt: All protein kinases were of human origin and encoded full length proteins, unless indicated otherwise. They were either expressed as glutathione S-transferase (GST) fusion proteins in Escherichia Coli or as hexahistidine (His6)-tagged proteins in insect Sf21 cells. GST fusion proteins were purified by affinity chromatography on glutathione-Sepharose, and His6-tagged proteins on nickel/nitriloacetate-agarose. The procedures for expressing some of the protein kinases used herein have been detailed previously.^8,9 The following sections outline the DNA vectors synthesised and the procedures used to express and purifying protein kinases that have not been reported previously.
The following kinases were expressed in Sf21 cells: Aurora B and Aurora C, extra-cellular signal-regulated kinase 8 (ERK8), microtubule affinity regulating kinase 3 (MARK3), protein kinase Bα[118-480][S473D], protein kinase Bβ (PKBβ[120-481][S474D], 3-phosphoinositide-dependent protein kinase-1 [52-556] (PDK1[52-556], IKKε, TBK1, […]
The assays were initiated with MgATP, stopped by addition of 5 μl of 0.5 M orthophosphoric acid and spotted on to P81 filterplates using a unifilter harvester (PerkinElmer, Boston, Mass. 02118, USA). The IC50 values of inhibitors were determined after carrying out assays at 10 different concentrations of each compound. […]

Question: With `O=C(NCCCn1ccc2cnc(Nc3ccc(-n4cncn4)cc3)nc21)C1CCC1` as the molecule, how does the pIC50 read?
Answer: > 7.00

pIC50: −log10 of the molar value.
